System: MMP13 gene expression
Test: qPCR MMP13 gene expression in cartilage explants
Format: cell-based
Text: Six millimetre diameter cartilage explants from immature articular cartilage containing 3 mm diameter inner cores, both created using punch biopsy tools (Steifel), were placed in Dulbecco's modified Eagles medium (DMEM) culture medium containing various concentrations of interleukin-1β or tumour necrosis factor α (TNFα; Peprotech), or, the culture medium without cytokine as a control. The medium was removed after the nominated time and washed once with DMEM then replaced with DMEM medium containing 50 μg/ml ascorbate, 10 mM HEPES, gentamycin and supplemented with 1× insulin-transferrin-selenium (ITS; Sigma). For qPCR studies the explants were first allowed to equilibriate in serum containing medium for 3 days, then washed 3 times in serum-free DMEM before the treatment as described above. […]
Quantitative polymerase chain reaction (qPCR) using the fluorescent dye SYBR Green (Eurogentec, Belgium) was used to determine the absolute expression levels of ADAMTS4 and MMP-13 between explants. […] At the end of each reaction, the cycle threshold (CT) was manually setup at the level that reflected the best kinetic PCR parameters, and melting curves were acquired and analysed. Absolute values for the gene of interest were calculated from standard curves generated using serially diluted plasmid cloned and sequence verified template (ng DNA) and were normalized to the housekeeping gene 18S rRNA.

## TNFα: catabolic cytokine tumour necrosis factor α (Peprotech)
12.5-100 ng/ml for 2 hours
  MMP13 gene expression, effect of increasing concentrations: linear increase in MMP13 gene expression
Highest concentration of TNFα (12.5-100 ng/ml tested), 2 hours, P<0.03, n=3 (FIG. 4)
  increase in MMP13 gene expression: approximately 2 fold

Source: patent publication US20110293559A1, “CATABOLIC AGENTS” (priority 2008, published 2011)
